Source: PubChem
GIV-Gai inh – blocks GIV peptide binding to rat Galpha-i3. P08753. Galpha-i3/FITC-GIV peptide fluorescence polarization, 90 min; stronger effect = lower value; scaled: aluminum fluoride 0%, vehicle 100%. percent of control (FP), % (concentration not given with the values). hit rate 0.42% among 210,000. AID 1224905;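 active means replicate mean at 85% of control or lower, very high polarization wells dropped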;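 further: wells of about 15 µL received 100 nL stock; the first replicate is given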
HCMV UL50-53 inh – inhibitors of HCMV UL50-UL53 nuclear egress complex interaction; inhibition, % (test concentration not listed); HTRF UL50-UL53 interaction, normalized percent inhibition; hit rate 0.15% among 190,000; in the data active means inhibition above about 27%, passing the limit was not always enough
Active calls of the source: *; · = no result given. A selection: hits, their analogues and other compounds. The true share with any hit is near 0.43%.

Compound: CCOc1cc(C=C2C(=O)N(C)C(=O)N(C)C2=O)ccc1OCCOCCOc1ccc(C)cc1
  GIV-Gai inh = 105; HCMV UL50-53 inh = 10
Compound: CCOc1cc(C=C2C(=O)N(C)C(=O)N(C)C2=O)ccc1OCCOc1ccc([N+](=O)[O-])cc1
  GIV-Gai inh = 103; HCMV UL50-53 inh = 55*
Compound: O=c1[nH]c2cc(Cl)c(S(=O)(=O)N3CCOCC3)cc2[nH]1
  GIV-Gai inh = 98; HCMV UL50-53 inh = -64
Compound: COc1ccc(-c2nc(Nc3ccc(OC)c(Cl)c3)c3ccccc3n2)cc1
  GIV-Gai inh = 111; HCMV UL50-53 inh = 1
Compound: COc1ccc(-c2nc(Nc3ccc4c(c3)OCCO4)c3ccccc3n2)cc1OC
  GIV-Gai inh = 101; HCMV UL50-53 inh = 34*
Compound: Cc1ccc(-n2[nH]c(=O)c(N=O)c2O)cc1C
  GIV-Gai inh = 85*; HCMV UL50-53 inh = ·
Compound: CC(=O)Nc1ccc(N=Cc2c(C)[nH]n(-c3ccc(C)c(C)c3)c2=O)cc1
  GIV-Gai inh = 117; HCMV UL50-53 inh = ·
Compound: CCc1noc(-c2cccn2C)n1
  GIV-Gai inh = 100; HCMV UL50-53 inh = ·
Compound: CC1CCCCN1Cc1ccc(-c2nc(CCn3cccn3)cc(=O)[nH]2)cc1 (configuration not stated)
  GIV-Gai inh = ·; HCMV UL50-53 inh = -14
Compound: Cc1cc(C)c(C#N)c(NC2CCCCC2)n1
  GIV-Gai inh = 104; HCMV UL50-53 inh = -3

Compound: O=c1[nH]c2ccccc2[nH]1
  GIV-Gai inh = ·; HCMV UL50-53 inh = -29
Compound: O=c1[nH]c2cc(Br)cnc2[nH]1
  GIV-Gai inh = 102; HCMV UL50-53 inh = 77*
Compound: CCN1/C(=C\C=C2/C(=O)NC(=O)N(C)C2=O)Sc2ccccc21
  GIV-Gai inh = -61*; HCMV UL50-53 inh = -44
Compound: CCN1/C(=C\C=C2\C(=O)N(C)C(=S)N2C)Sc2ccccc21
  GIV-Gai inh = 270; HCMV UL50-53 inh = ·
Compound: Cn1c(=O)cc2c3c(c(Br)ccc31)C(=O)c1ccccc1-2
  GIV-Gai inh = 111; HCMV UL50-53 inh = ·
Compound: Cn1c(=O)c(O)c2c3c(c(Br)ccc31)C(=O)c1ccccc1-2
  GIV-Gai inh = -29*; HCMV UL50-53 inh = ·
Compound: O=C(O)c1cc2ccccc2c(=O)[nH]1
  GIV-Gai inh = 104; HCMV UL50-53 inh = -23
Compound: O=c1[nH]c(Nc2ccccc2)cc2ccccc12
  GIV-Gai inh = -60*; HCMV UL50-53 inh = 110*
Compound: COc1ccc(-c2c(C#N)c(N)nc(SCC(=O)OCc3ccccc3)c2C#N)cc1
  GIV-Gai inh = 104; HCMV UL50-53 inh = 4
Compound: N#Cc1c(N)nc(SCC(=O)Nc2ccccc2)c(C#N)c1-c1ccccc1
  GIV-Gai inh = 98; HCMV UL50-53 inh = 24*

Compound: N#Cc1c(N)nc(SCC(=O)c2ccc(Br)cc2)c(C#N)c1-c1ccccc1
  GIV-Gai inh = 101; HCMV UL50-53 inh = 7
Compound: N#Cc1c(N)nc(SCC(=O)c2ccc(Br)cc2)c(C#N)c1-c1cccs1
  GIV-Gai inh = 100; HCMV UL50-53 inh = 40*
Compound: CCOc1ccc(-c2c(C#N)c(N)nc(SCC(=O)OC)c2C#N)cc1
  GIV-Gai inh = 105; HCMV UL50-53 inh = 73*
Compound: N#Cc1c(N)nc(SCC(=O)Nc2ccc([N+](=O)[O-])cc2)c(C#N)c1-c1ccco1
  GIV-Gai inh = 97; HCMV UL50-53 inh = -27
Compound: CNC(=S)NNS(=O)(=O)c1ccc2ccccc2c1
  GIV-Gai inh = 102; HCMV UL50-53 inh = -10
Compound: CC(Sc1ccc2c(c1)OCCO2)C(N)=O (configuration not stated)
  GIV-Gai inh = ·; HCMV UL50-53 inh = 5
Compound: CN1c2cc(Cl)ccc2-c2nc(SCC(N)=O)ncc2S1(=O)=O
  GIV-Gai inh = 105; HCMV UL50-53 inh = 2
Compound: CN1c2cc(Cl)ccc2-c2nc(SCC(=O)NC3CCCC3)ncc2S1(=O)=O
  GIV-Gai inh = 103; HCMV UL50-53 inh = 75*
Compound: Cc1cc(C)n(-c2nc3cc(Cl)ccc3nc2Nc2ccc3c(c2)n(C)c(=O)n3C)n1
  GIV-Gai inh = 3.9*; HCMV UL50-53 inh = 5
Compound: Cc1cc(C)n(-c2nc3cc(Cl)ccc3nc2Nc2ccc(C)c(F)c2)n1
  GIV-Gai inh = 103; HCMV UL50-53 inh = 0

Compound: O=C(O)c1ccccc1-c1nnc2c(Cl)cc(C(F)(F)F)cn12
  GIV-Gai inh = 99; HCMV UL50-53 inh = -22
Compound: Fc1ccccc1-c1nnc2ccc(C(F)(F)F)cn12
  GIV-Gai inh = ·; HCMV UL50-53 inh = 57*
Compound: COc1ccccc1C(=O)Nc1ccc(C(O)(C(F)(F)F)C(F)(F)F)cc1
  GIV-Gai inh = 109; HCMV UL50-53 inh = -22
Compound: CC(=O)Oc1ccc2cc(-c3nc(-c4cccs4)cs3)c(=O)oc2c1
  GIV-Gai inh = 150; HCMV UL50-53 inh = ·
Compound: O=c1oc2cc(O)ccc2cc1-c1nc(-c2ccc(Cl)c(Cl)c2)cs1
  GIV-Gai inh = -69*; HCMV UL50-53 inh = ·
Compound: O=c1oc2cc(O)ccc2cc1-c1nc(-c2cccs2)cs1
  GIV-Gai inh = -32*; HCMV UL50-53 inh = ·
Compound: CC(=O)Oc1ccc2cc(-c3nc(-c4ccc(Cl)c(Cl)c4)cs3)c(=O)oc2c1
  GIV-Gai inh = 116; HCMV UL50-53 inh = ·
Compound: O=C(Nc1cccnc1)c1csc(Cc2ccccc2)n1
  GIV-Gai inh = ·; HCMV UL50-53 inh = -8
Compound: Cc1c(NC(=S)NCCCN2CCOCC2)c(=O)n(-c2ccccc2)n1C
  GIV-Gai inh = 99; HCMV UL50-53 inh = -29
Compound: O=C(O)COc1ccc2c(c1)C(=NO)c1cc(OCC(=O)O)ccc1-2
  GIV-Gai inh = 106; HCMV UL50-53 inh = ·

Compound: O=C(O)COc1ccc2c(c1)C(=O)c1cc(OCC(=O)O)ccc1-2
  GIV-Gai inh = 84*; HCMV UL50-53 inh = -57
Compound: O=c1[nH]c2ccc(NCc3ccccc3Cl)cc2[nH]1
  GIV-Gai inh = 98; HCMV UL50-53 inh = -17
Compound: O=C(O)CN1C(=O)/C(=C\c2ccc(-c3ccc(Cl)c([N+](=O)[O-])c3)o2)SC1=S
  GIV-Gai inh = 111; HCMV UL50-53 inh = -44
Compound: CCN1C(=O)/C(=C\c2ccc(-c3ccc(Cl)c(C(=O)O)c3)o2)SC1=S
  GIV-Gai inh = -15*; HCMV UL50-53 inh = -391
Compound: CC(=O)Nc1ccc(/C=c2\sc3nc4cc(Br)cnc4n3c2=O)cc1
  GIV-Gai inh = 109; HCMV UL50-53 inh = ·
Compound: Cc1ccc2[nH]c3c(c2c1)CCC1C3=NNC1c1ccco1 (configuration not stated)
  GIV-Gai inh = -66*; HCMV UL50-53 inh = ·
Compound: Cc1ccc2[nH]c3c(c2c1)CCc1cn[nH]c1-3
  GIV-Gai inh = 99; HCMV UL50-53 inh = -16
Compound: NC(=O)c1ccc2c(c1)OCCCO2
  GIV-Gai inh = 104; HCMV UL50-53 inh = ·
Compound: Clc1ccc(-c2ccc(CNc3nn[nH]n3)o2)c(Cl)c1
  GIV-Gai inh = 109; HCMV UL50-53 inh = -22
Compound: COc1ccc(N2C(=O)NC(=O)/C(=C\c3cc(Br)c(N4CCOCC4)o3)C2=O)cc1
  GIV-Gai inh = 111; HCMV UL50-53 inh = 0
Compound: O=C1NC(=O)N(c2ccc(Br)cc2)C(=O)/C1=C/c1ccc(N2CCOCC2)o1
  GIV-Gai inh = 16*; HCMV UL50-53 inh = -113

Single records, from the list above. Screens in order: GIV-Gai inh	HCMV UL50-53 inh
`CC(=O)Oc1ccc2cc(-c3nc(-c4ccc(Cl)c(Cl)c4)cs3)c(=O)oc2c1` is listed as 116	·
`N#Cc1c(N)nc(SCC(=O)Nc2ccccc2)c(C#N)c1-c1ccccc1` is listed as 98	24*
